In experiment [1] the target is T1, cloned human B1 bradykinin receptor in transiently transfected COS-7 cells (COS 33E9) (Homo sapiens, UniProt P46663).
T1 construct: the full-length open reading frame of the B1 DNA (encoding a protein of about 40.4 kDa =about base 209 to about base 1267); expressed in transfected cells; host or cells: COS-7 cells, transient electroporation of clone 33E9 (pcDNA3 library vector)
T1 sequence (P46663 1-353): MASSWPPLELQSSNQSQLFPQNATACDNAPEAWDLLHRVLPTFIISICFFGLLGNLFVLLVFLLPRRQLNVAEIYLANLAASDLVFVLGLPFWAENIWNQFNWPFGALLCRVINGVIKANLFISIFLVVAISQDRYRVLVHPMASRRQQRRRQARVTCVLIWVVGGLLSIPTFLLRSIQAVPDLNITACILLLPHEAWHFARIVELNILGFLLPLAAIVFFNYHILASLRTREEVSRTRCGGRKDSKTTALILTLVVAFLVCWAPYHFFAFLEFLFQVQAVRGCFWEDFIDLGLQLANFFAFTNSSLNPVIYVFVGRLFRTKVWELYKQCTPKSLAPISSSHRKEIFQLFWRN
Nature of the experiment: Displacement of 1 nM [3H]des-Arg10kallidin, membrane binding assay, COS 33E9. Conditions: read-out: IC50, COS 33E9, membranes of transiently transfected COS-7 cells. The procedure: Transient expression of the cloned B1 bradykinin receptor in COS-7 cells was accomplished by electroporation using a Biorad Gene Pulser. […] Binding assays were performed at room temperature for 45 minutes. Reactions were terminated by filtration using an Inotech cell harvester onto glass fiber filters (Inotech) that had been briefly soaked in 0.3% polyethyleneimine. The filters were washed five times with 1 ml per well of cold PBS and counted in a liquid scintillation counter. Alternatively, reactions were collected using a Tomtec cell harvester 96 onto 0.3% polyethyleneimine presoaked glass fiber filters (Pharmacia, printed filtermat for use with the 1205 Betaplate). The filter was washed five times with a total of 10 ml per well of cold 1× PBS, dried and sealed in a bag (Pharmacia) containing scintillation fluid. Counting was accomplished using a LKB1205 Betaplate liquid scintillation counter.

The chains behind the UniProt entries cited, without tags or fusion partners. Where a name states a change or a piece, a line headed by the entry shows the natural chain unless it says otherwise.
UniProt P01042: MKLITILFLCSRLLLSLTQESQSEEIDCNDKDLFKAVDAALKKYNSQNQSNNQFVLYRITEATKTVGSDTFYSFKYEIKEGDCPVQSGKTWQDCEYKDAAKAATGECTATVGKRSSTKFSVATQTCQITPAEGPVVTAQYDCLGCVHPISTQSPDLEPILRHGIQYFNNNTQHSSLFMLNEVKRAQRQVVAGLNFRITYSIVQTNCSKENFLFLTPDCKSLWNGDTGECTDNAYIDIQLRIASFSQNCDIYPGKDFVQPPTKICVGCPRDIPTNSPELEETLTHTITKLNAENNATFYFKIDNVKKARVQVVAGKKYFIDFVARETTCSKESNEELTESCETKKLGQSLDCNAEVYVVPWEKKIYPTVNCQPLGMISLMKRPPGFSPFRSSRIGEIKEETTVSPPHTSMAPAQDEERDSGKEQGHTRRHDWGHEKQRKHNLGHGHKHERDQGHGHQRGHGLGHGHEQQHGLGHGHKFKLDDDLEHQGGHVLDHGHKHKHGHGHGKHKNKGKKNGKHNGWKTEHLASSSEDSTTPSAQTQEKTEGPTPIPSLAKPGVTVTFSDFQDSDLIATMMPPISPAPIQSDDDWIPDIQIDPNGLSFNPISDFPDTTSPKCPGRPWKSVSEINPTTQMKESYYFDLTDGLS

The target in experiment [2] is T2, B1 receptor in IMR-90 cells (Homo sapiens, UniProt P46663).
T2 construct: 33E9) with the B1 receptor in IMR-90 cells (IMR-90); endogenous in cells; host or cells: IMR-90 cells (ATCC CCL 186)
T2 sequence (P46663 1-353): T1 sequence (P46663 1-353)
Put plainly: Displacement of 1 nM [3H]des-Arg10kallidin, membrane binding assay, IMR-90. The settings on record: read-out: IC50, IMR-90, IMR-90 membranes.

Experiment [3] addresses T3, B1 bradykinin receptor clone 33E9 transfected into COS-7 cells (Homo sapiens, UniProt P46663).
T3 construct: the full-length open reading frame of the B1 DNA (encoding a protein of about 40.4 kDa =about base 209 to about base 1267); expressed in transfected cells; host or cells: COS-7 cells, transient electroporation of clone 33E9 (pcDNA3 library vector)
T3 sequence (P46663 1-353): T1 sequence (P46663 1-353)
Nature of the experiment: Saturation binding with [3H]des-Arg10kallidin, Scatchard analysis. Conditions: Scatchard analysis of saturation binding data; clone 33E9 in COS-7 cells. As for the experimental part: Transient expression of the cloned B1 bradykinin receptor in COS-7 cells was accomplished by electroporation using a Biorad Gene Pulser. Three days post-transfection, cells were processed for a whole cell binding assay as previously published (K. A. Schneck, J. F. Hess, G. Y. Stonesifer, R. W. Ransom, European Journal of Pharmacology—Molecular Pharmacology Section 266, 277-282 (1994)) or membranes were prepared as described previously (Huang, R. -R. C., Dehaven, R. N., Cheung, A. H., Diehl, R. E., Dixon, R. A. F., Strader, C. D., Molecular Pharmacology 37, 304-310 (1990)) and radioligand binding measured as follows. Displacement studies were done with 1 nM [des-Arg^10],[3,4-^3H(N)]-kallidin (NEN) in the presence of varying concentrations of competitor compounds. Binding assays were performed at room temperature for 45 minutes. Reactions were terminated by filtration using an Inotech cell harvester onto glass fiber filters (Inotech) that had been briefly soaked in 0.3% polyethyleneimine. The filters were washed five times with 1 ml per well of cold PBS and counted in a liquid scintillation counter. […]
The B1 bradykinin receptor clone 33E9 was transfected into COS-7 cells and the pharmacological properties of the expressed receptor were determined.

Experiment [4] has as its target T4, B1 bradykinin receptor in IMR-90 cells (human, UniProt P46663 1-353).
T4 construct: whole, on cells; Endogenous receptor; also called B1 receptor expressed in IMR-90 cells
T4 sequence (looked up): T1 sequence (P46663 1-353)
Nature of the experiment: displacement of 1 nM [3H]des-Arg10kallidin, membrane binding assay, IMR-90 cells. As for the experimental part:
(§1) Binding assays were performed at room temperature for 45 minutes. Reactions were terminated by filtration using an Inotech cell harvester onto glass fiber filters (Inotech) that had been briefly soaked in 0.3% polyethyleneimine. The filters were washed five times with 1 ml per well of cold PBS and counted in a liquid scintillation counter. Alternatively, reactions were collected using a Tomtec cell harvester 96 onto 0.3% polyethyleneimine presoaked glass fiber filters (Pharmacia, printed filtermat for use with the 1205 Betaplate). The filter was washed five times with a total of 10 ml per well of cold 1× PBS, dried and sealed in a bag (Pharmacia) containing scintillation fluid. Counting was accomplished using a LKB₁₂₀₅ Betaplate liquid scintillation counter.
(§2) The IC₅₀'s were determined by the displacement of 1 nM [³H]des- Arg¹⁰kallidin in the membrane binding assay described above.

The target in experiment [5] is T5, cloned human B1 bradykinin receptor (clone 33E9) (human, UniProt P46663 1-353).
T5 construct: Transiently expressed in COS-7 cells; The same clone was expressed from cRNA in Xenopus oocytes for the functional read-out; also called COS 33E9; the cloned receptor
T5 sequence: T1 sequence (P46663 1-353) with R146G
Put plainly: displacement of 1 nM [3H]des-Arg10kallidin, membrane binding assay, COS-7 cells transiently transfected with clone 33E9. The procedure: as §1, §2

Changes are numbered by the printed parent chain.

With Kallidin, the figures for the IC50 in experiment [1] and in experiment [2] were 46 nM and 44 nM, respectively. Regarding Met-Lys-Bradykinin, the IC50 (in general, the concentration that inhibits the measured activity by half) in experiment [1] stood at 71 nM. With “[des-Arg^10],[3,4-^3H(N)]-kallidin [[^3H]des-Arg^10kallidin]”, the Kd (commonly a measure of binding affinity in units of concentration) in experiment [3] was approximately 1 nM.

Consider des-Arg^9Leu^8bradykinin, for which the IC50 was determined as 605 nM in experiment [1] and 266 nM in experiment [2]. The corresponding values for des-Arg^9bradykinin are 1500 nM and 660 nM. For des-Arg^10Leu^9kallidin, in experiment [2], the IC50 worked out at 7.8 nM.

For the molecule RPPGFSPL [des-Arg^9Leu^8bradykinin], the IC50 in experiment [4] worked out at 266 nM; in experiment [5], 605 nM.

For the molecule KRPPGFSPFR (peptide, UniProt P01042 380-389, looked up, domain: Kallidin; also called Lys-BK) [Kallidin], the half-inhibitory concentration (IC50) was determined as 44 nM in experiment [4] and 46 nM in experiment [5]. In experiment [5], MKRPPGFSPFR (peptide, UniProt P01042 379-389, looked up, domain: Met-Lys-Bradykinin) [Met-Lys-Bradykinin] came in with an IC50 of 71 nM. In experiment [4], KRPPGFSPL [des-Arg^10Leu^9kallidin] displayed an IC50 of 7.8 nM.

Values taken from patent US20030036633A1, “DNA encoding bradykinin B1 receptor” (Merck & Co., Inc., priority 1994, published 2003).
